From patent US12377100B2 (GILEAD SCIENCES, INC., priority 2015, dated 2025)

Legend:
Type in all cases: cell-based
IFNα = test: PBMC cytokine profiling assay, IFNα induction; details: Homo sapiens, 24 h, read-out: IFNα AC50
Protocol: (§1) Certain compounds disclosed herein we tested according to the procedure described below. Additionally, certain reference compounds were prepared and tested along with the compounds of the present disclosure.
(§2) Compounds were dissolved and stored in DMSO (Sigma-Aldrich, St. Louis, MO) at 10 mM concentration.
(§3) Cryopreserved human PBMCs isolated from healthy donors were purchased from StemCell Technologies (Vancouver, Canada). Cell culture medium used was RPMI with L-Glutamine (Mediatech, Manassas, VA) supplemented with 10% fetal bovine serum (Hyclone, GE Healthcare, Logan, UT) and Penicillin-Streptomycin (Mediatech). […]
(§4) Cryopreserved human PBMCs (1×10e8 cells/ml) were thawed at 37° C. and resuspended in 25 mL warm cell culture medium. […] Cells were counted using a Cellometer (Nexcelcom Bioscience), adjusted to 2×10e6 cells, and incubated for 2 hours in an incubator set at 37° C., 5% CO2 to recover from cryopreservation. […]
(§5) Using a Biomek FX 384 well pipetting station (Beckman), conditioned culture medium (CCM) from the assay plate was transferred to MSD capture plates customized for each cytokine. […] MSD Read Buffer diluted to 2× in deionized water and 35 μL/well was added via Biomek FX instrument. The plates were read immediately in a MSD6000 reader. […]

TNFα = test: PBMC cytokine profiling assay, TNFα induction; details: Homo sapiens, 24 h, read-out: TNFα AC50
Protocol: as §1, §2, §3, §4, §5

IL12p40 = test: PBMC cytokine profiling assay, IL12-p40 induction; details: Homo sapiens, 24 h, read-out: IL12p40 AC50
Protocol: as §1, §2, §3, §4, §5

Compound `CCCC[C@](C)(CO)Nc1nc(N)nc2cc(Cl)cnc12` [Example 114, (R)-2-((2-amino-7-chloropyrido[3,2-d]pyrimidin-4-yl)amino)-2-methylhexan-1-ol] has an AC50 (IFNα) of 34.1 µM, an AC50 (TNFα) of 340 nM and an AC50 (IL12p40) of 200 nM.
